Tested on: biopterin
Test: purified protein, by the assay type
Conditions: other: pH 4.7, 30 °C, other substrate saturating

LcPTR1 (Leishmania infantum)
Km: 25 ± 1.2 µM
